Hits are enriched below; roughly 0.46% of the tested compounds scored in any of these assays.
HCMV NEC inh: disrupts HCMV UL50-UL53 complex binding | actives 0.15% (n = 190,000) | inhibition, % (test concentration not listed) | AID 1918969 | HTRF UL50-UL53 interaction, normalized percent inhibition; in the data active = inhibition above about 27%, passing the limit was not always enough
GIV-Gai inh: inhibitors of GIV GBA-motif binding to rat Galpha-i3; P08753; Galpha-i3/FITC-GIV peptide fluorescence polarization, 90 min; active compounds read low; scaled: aluminum fluoride 0%, vehicle 100%; percent of control (FP), % (test concentration not listed); 210,000 tested, 0.42% active; AID 1224905;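 active = replicate mean at 85% of control or lower, very high polarization wells dropped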;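 note: lower values mean more displacement of the GIV peptide from Galpha-i3; wells of about 15 µL received 100 nL stock; the first replicate is given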
The depositor's hits bear a star; nt = not tested or not shown.

1) O=C(NC1CCCC1)C1CCCN(c2ccc3cc(S(=O)(=O)N4CCCC4)ccc3n2)C1 (stereo unspecified)
2) O=C(O)c1cccc(N2C(=O)c3ccc4c5c(ccc(c35)C2=O)C(=O)N(c2cccc(C(=O)O)c2)C4=O)c1
3) O=C(O)c1cc(NC(=O)c2cccc(N3C(=O)c4cccc5c([N+](=O)[O-])ccc(c45)C3=O)c2)cc(C(=O)O)c1
4) O=C(NCC1CCCO1)c1cc2c(s1)-c1ccccc1OC2 (stereo unspecified)
5) O=C(NCC1CCCO1)c1cc(-c2ccccc2)c(N2CCCCC2)s1 (stereo unspecified)
Compound	1	2	3	4	5
HCMV NEC inh	nt	-43	-20	nt	35*
GIV-Gai inh	105	105	85*	111	102

GIV-Gai inh, hit marks shown above.
no. | mol | GIV-Gai inh
3 | O=C(O)c1cc(NC(=O)c2cccc(N3C(=O)c4cccc5c([N+](=O)[O-])ccc(c45)C3=O)c2)cc(C(=O)O)c1 | 85*

(cont.)
6) COc1ccc(Br)cc1C1C(N2C(=O)c3cccc([N+](=O)[O-])c3C2=O)C(=O)N1c1ccc(C)c(Cl)c1 (stereo unspecified)
7) COc1ccc(Cl)cc1NC(=O)c1cnn(-c2ccc(F)cc2)c1C1CCNCC1
8) N#Cc1cc2ccc(O)cc2oc1=N
9) O=c1oc2cc(O)ccc2cc1-c1cc(F)cc(F)c1
10) CCC(=O)Nc1cccc(-c2noc(C3CCCN(C(=O)c4ccc(C)cc4)C3)n2)c1 (stereo unspecified)
Compound	6	7	8	9	10
HCMV NEC inh	nt	nt	-28	-36	nt
GIV-Gai inh	105	109	-3.8*	115	100

11) CCSC1=N/C(=C\c2ccc(C(=O)O)cc2)C(=O)S1
12) CCSC1=N/C(=C\c2ccc(N(C)C)cc2)C(=O)S1
13) O=S1(=O)NC(c2ccc(Cl)cc2Cl)Nc2ccccc21 (stereo unspecified)
14) COc1ccccc1OCCn1c(=N)n(C)c2ccccc21
15) O=C(Nc1nc2n(n1)C(c1ccccc1)C=C(c1ccccc1)N2)c1ccco1 (stereo unspecified)
Compound	11	12	13	14	15
HCMV NEC inh	nt	-4	-19	-14	-33
GIV-Gai inh	106	28*	100	101	130

16) O=C(O)CCC(=O)Nc1nc2n(n1)C(c1ccccc1)C=C(c1ccccc1)N2 (stereo unspecified)
17) NC(=S)c1cc2ccccc2oc1=O
18) NC(=S)c1cc2ccc(O)cc2oc1=O
19) COc1cccc(N/C(SCc2cccc([N+](=O)[O-])c2)=C(/C#N)C(=O)NCCc2ccc(OC)c(OC)c2)c1
20) CCCCn1c(NC(=O)c2ccccc2)c(C#N)c2nc3ccccc3nc21
Compound	16	17	18	19	20
HCMV NEC inh	-26	nt	-107	nt	73
GIV-Gai inh	83*	6.0*	124	102	nt

21) CCC(C)n1c(NC(=O)c2ccccc2)c(C#N)c2nc3ccccc3nc21 (stereo unspecified)
22) O=C1/C(=C/c2cn(-c3ccccc3)nc2-c2ccc(Cl)cc2)SC(=S)N1C1CCS(=O)(=O)C1 (stereo unspecified)
23) O=C1/C(=C/C2=Cc3ccccc3OC2)SC(=S)N1C1CCS(=O)(=O)C1 (stereo unspecified)
24) Nc1ccc(SC(C(F)(F)F)(C(F)(F)F)C(F)(F)F)cc1
25) COC(=O)CN1C(=O)/C(=C\c2ccc(O)cc2)SC1=S
Compound	21	22	23	24	25
HCMV NEC inh	72*	-7	-48	-13	nt
GIV-Gai inh	nt	105	-35*	nt	-42*

26) CCN1C(=O)/C(=C\c2ccc(OCC(N)=O)c(OC)c2)SC1=S
27) COC(=O)CN1C(=O)S/C(=C\c2ccccc2)C1=O
28) COC(=O)CN1C(=O)C(=Cc2ccc(N(C)C)cc2)SC1=S
29) CCCN1C(=O)/C(=C/c2ccc(O)c(OC)c2)SC1=S
30) CCOC(=O)CN1C(=O)/C(=C/c2ccccc2)SC1=S
Compound	26	27	28	29	30
HCMV NEC inh	-14	-48	nt	-28	-34
GIV-Gai inh	nt	103	-42*	-34*	nt

31) CCOc1ccc(CNc2ccc(O)cc2)cc1
32) CC1CC(C)CN(CC2CCN(C(=O)Nc3ccc(Br)cc3)CC2)C1 (stereo unspecified)
33) CC(C)CCNC(=O)CCCCn1c(=O)c2ccccc2n(CC(=O)Nc2cccc(F)c2)c1=O
34) Oc1c(C=NC2CCCCC2)[nH]c2ccc(Br)c(Cl)c12
35) Oc1c(C=NCc2ccccc2)[nH]c2ccc(Br)c(Cl)c12
Compound	31	32	33	34	35
HCMV NEC inh	nt	nt	-20	nt	nt
GIV-Gai inh	97	108	102	-64*	225

36) CCSc1nnc(NC(=O)CN(C)S(=O)(=O)c2cc3c(cc2C)NC(=O)C(C)O3)s1 (stereo unspecified)
37) CN1/C(=C/C=C/c2oc3ccccc3[n+]2C)Oc2ccccc21
38) Cc1ccc(NC(=O)c2cc3ccccc3c([N+]#N)c2[O-])cc1
39) CCOC(=O)c1nc(NCCN2CCOCC2)c2c(C)noc2n1
40) COc1cccc(/C(O)=C/c2nc3ccc(C(=O)N4CCN(c5ccccn5)CC4)cc3[nH]c2=O)c1
Compound	36	37	38	39	40
HCMV NEC inh	nt	nt	-28	0	-44
GIV-Gai inh	109	-5.9*	107	103	55*

Two entries from above, reformatted.
Every second line gives: HCMV NEC inh | GIV-Gai inh
37. CN1/C(=C/C=C/c2oc3ccccc3[n+]2C)Oc2ccccc21
  nt | -5.9*
38. Cc1ccc(NC(=O)c2cc3ccccc3c([N+]#N)c2[O-])cc1
  -28 | 107

More results.
41) COc1cccc(/C(O)=C/c2nc3ccc(C(=O)N4CCN(C5CCCCC5)CC4)cc3[nH]c2=O)c1
42) CCOc1cccc(N2C(=O)/C(=C\c3ccc(N(CC)CC)cc3OC)C(=O)NC2=S)c1
43) CCN(CC)c1ccc(C=C2C(=O)c3ccccc3C2=O)c(OC)c1
44) O=C1c2ccccc2-c2nc3ccccc3nc21
45) CCC(=O)Nc1ccc2nc3c(=O)n(C)c(=O)n(C)c3nc2c1
Compound	41	42	43	44	45
HCMV NEC inh	-74	-14	nt	-135	-152
GIV-Gai inh	110	222	-18*	104	102

46) CCN(CC)c1ccc2nc3c(nc2c1)C(=O)c1ccccc1C3=O
47) CCN(CC)c1ccc2nc3c(=O)n(C)c(=O)n(C)c3nc2c1
48) O=C(Nc1ccc(-c2noc(-c3ccc(Cl)cc3)n2)cc1)c1ccc(Br)o1
49) COC(=O)c1cc2sccc2n1C(C)C(=O)N1CCCc2ccccc21 (stereo unspecified)
50) CC1CCN(CCNc2cc(N(C)C)c3noc4c3c2C(=O)c2ccccc2-4)CC1
Compound	46	47	48	49	50
HCMV NEC inh	64*	-138	nt	nt	-135
GIV-Gai inh	107	-26*	108	104	-4.4*

51) Cc1ccc(Nc2cc(N(C)C)c3noc4c3c2C(=O)c2ccccc2-4)cc1
52) CCNc1cc(N(C)C)c2noc3c2c1C(=O)c1ccccc1-3
53) CN(C)c1cc(Nc2ccc(Cl)cc2)c2c3c(onc13)-c1ccccc1C2=O
54) Cc1ccc2oc(-c3nnc(C(=O)NCCN(C)C)o3)c(C)c2c1
55) CCc1nc(N2CCC(C(=O)N3CCC4(CC3)OCCO4)CC2)c2c(C)scc2n1
Compound	51	52	53	54	55
HCMV NEC inh	nt	nt	-23	-10	nt
GIV-Gai inh	115	-21*	111	111	107

56) CCC(C)N=CC1=C(O)CC(C)(C)CC1=O (stereo unspecified)
57) O=C(NCC(c1ccccc1)c1c[nH]c2ccccc12)c1ccccc1Br (stereo unspecified)
58) COc1cccc(NC(=O)c2cc3ccccc3oc2=O)c1
59) COc1cccc(NC(=O)c2cc3cc4c5c(c3oc2=N)CCCN5CCC4)c1
60) N=c1oc2c(Cl)cc(Cl)cc2cc1C(=O)Nc1ccc(F)cc1
Compound	56	57	58	59	60
HCMV NEC inh	-15	-20	-2	-21	-8
GIV-Gai inh	99	105	nt	-14*	100

61) Cc1ccc(NC(=O)c2cc3cc4c5c(c3oc2=N)CCCN5CCC4)cc1
62) CCOc1ccc(NC2=CC(=O)C=CC2=O)cc1
63) CC(C)c1cc(C2CCCN2C(=O)C(C)(C)C)on1 (stereo unspecified)
64) O=C1/C(=C/c2ccccc2)Nc2ccccc21
65) O=C1Nc2ccccc2/C1=C/c1ccccc1
Compound	61	62	63	64	65
HCMV NEC inh	-23	-7	nt	-72	nt
GIV-Gai inh	-14*	nt	101	-102*	109

66) CCCC1C(C#N)=C(N)SC(N)=C1C#N
67) CC1C(C#N)=C(N)SC(N)=C1C#N
68) COc1ccc(S(=O)(=O)[C@H]2CS(=O)(=O)C[C@@H]2NCCc2c[nH]c3ccccc23)cc1
69) CCCC(=O)Nc1ccccc1-c1nc2ccccc2[nH]1
70) CCOC(=O)C1CCCN(C(=O)Cn2c(=O)c3ccccc3n3c(=S)sc(-c4ccc(Cl)cc4)c23)C1 (stereo unspecified)
Compound	66	67	68	69	70
HCMV NEC inh	-11	30	-14	-1	12
GIV-Gai inh	nt	-20*	99	nt	135

Screens as filed in PubChem BioAssay.
